The target in the experiment is FTO (fat mass and obesity-associated protein) (Homo sapiens, UniProt Q9C0B1).

Protein sequences, listed by entry. Tags and fused reporters are not part of them. Residues count along the entry.
UniProt Q9C0B1, 32-505: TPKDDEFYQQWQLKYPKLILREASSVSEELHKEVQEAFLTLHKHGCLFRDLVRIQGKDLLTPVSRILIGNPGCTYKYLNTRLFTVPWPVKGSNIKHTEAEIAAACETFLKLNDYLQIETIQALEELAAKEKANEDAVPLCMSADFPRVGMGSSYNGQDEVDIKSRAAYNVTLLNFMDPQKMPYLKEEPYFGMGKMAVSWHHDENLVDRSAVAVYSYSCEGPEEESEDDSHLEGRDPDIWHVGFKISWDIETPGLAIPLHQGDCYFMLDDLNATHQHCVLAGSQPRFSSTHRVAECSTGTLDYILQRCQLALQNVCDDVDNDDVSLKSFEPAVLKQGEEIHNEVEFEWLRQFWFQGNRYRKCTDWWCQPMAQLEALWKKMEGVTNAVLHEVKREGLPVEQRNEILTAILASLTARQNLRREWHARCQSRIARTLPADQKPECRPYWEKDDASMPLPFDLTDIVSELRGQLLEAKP

`Cc1c(-c2ccc(-c3ccccc3F)cc2)nc2ccc(F)cc2c1C(=O)O` [CS2, Brequinar]: the IC50 result was “both CS1 and CS2 efficiently suppressed m^6A demethylase activity of FTO, with IC50 values in nanomolar range”.

These data come from publication PMC7363590 (Cancer cell, 2020).
